# Test results taken from patent US20250302815A1, “PROTEIN TYROSINE PHOSPHATASE TARGETING LIGANDS” (CALICO LIFE SCIENCES LLC, priority 2021, published 2025).
# Protein sequences, listed by entry. Tags and fused reporters are not part of them.
# UniProt Q06180, whole entry: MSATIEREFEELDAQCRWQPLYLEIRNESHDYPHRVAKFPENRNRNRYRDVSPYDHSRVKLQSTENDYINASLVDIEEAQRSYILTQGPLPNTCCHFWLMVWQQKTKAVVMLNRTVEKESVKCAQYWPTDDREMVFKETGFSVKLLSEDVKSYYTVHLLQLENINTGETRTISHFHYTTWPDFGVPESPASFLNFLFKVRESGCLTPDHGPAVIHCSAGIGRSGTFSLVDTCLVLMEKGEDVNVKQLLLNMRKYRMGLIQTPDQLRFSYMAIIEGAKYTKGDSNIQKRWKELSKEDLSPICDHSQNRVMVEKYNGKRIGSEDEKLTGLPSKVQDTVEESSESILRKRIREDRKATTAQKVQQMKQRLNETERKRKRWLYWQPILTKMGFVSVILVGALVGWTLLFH
# UniProt P17706, whole entry: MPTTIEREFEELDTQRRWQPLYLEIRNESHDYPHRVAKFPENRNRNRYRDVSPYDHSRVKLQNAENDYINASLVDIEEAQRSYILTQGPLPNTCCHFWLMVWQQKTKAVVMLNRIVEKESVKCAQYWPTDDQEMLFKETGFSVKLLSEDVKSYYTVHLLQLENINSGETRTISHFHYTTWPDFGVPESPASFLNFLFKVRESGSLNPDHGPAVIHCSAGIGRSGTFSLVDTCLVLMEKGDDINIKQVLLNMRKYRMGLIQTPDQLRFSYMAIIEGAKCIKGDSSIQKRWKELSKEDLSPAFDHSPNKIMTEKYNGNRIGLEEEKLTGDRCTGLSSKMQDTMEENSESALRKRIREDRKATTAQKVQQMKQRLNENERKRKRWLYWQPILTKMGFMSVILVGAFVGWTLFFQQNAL
# Assays:
# [1] = molecular target: PTPN2 (B16F10.4 cells) (Mus musculus, UniProt Q06180); test: HiBiT Degradation B16F10.4 PTPN2
# [2] = molecular target: PTPN2 (HiBIT-PTPN2 in 293T.109 cells) (Homo sapiens, UniProt P17706); test: HiBiT Degradation 293T.109 PTPN2 (Nano-Glo HiBiT Lytic Assay)
# [3] = read-out: HiBiT Degradation B16F10.4 PTPN2 24.0 hours DC50, tested form: TFA
# [4] = read-out: HiBiT Degradation 293T.109 PTPN2 24.0 hours DC50, tested form: TFA
SMILES,"DC50 [1, 3] [µM]","DC50 [2, 4] [µM]",DC50 ([1]; read-out: HiBiT Degradation B16F10.4 PTPN2 24.0 hours DC50) [µM],DC50 ([2]; read-out: HiBiT Degradation 293T.109 PTPN2 24.0 hours DC50) [µM]
Cc1cn(C2CCC(=O)NC2=O)c2ccc(N3CCC(CCNC(=O)Nc4cccc(CS(=O)(=O)N5CC[C@H](Nc6cccc(-c7sc(C(=O)O)c(OCC(=O)O)c7Cl)c6)CC5(C)C)c4)CC3)cc12 (stereo partly drawn),0.2 to 1,0.05 to 0.2,,
O=C(O)COc1c(C(=O)O)sc(-c2cccc(NC3CCN(S(=O)(=O)Cc4cccc(NC(=O)CCCCCN5CCC(Nc6cccc7c6C(=O)N(C6CCC(=O)NC6=O)C7=O)CC5)c4)CC3)c2)c1Cl (stereo not drawn),> 1,0.2 to 1,,
CC1(C)C[C@@H](Nc2cccc(-c3sc(C(=O)O)c(OCC(=O)O)c3Cl)c2)CCN1S(=O)(=O)Cc1cccc(NC(=O)N2CCC(c3ccc4c5c(cccc35)C(=O)N4C3CCC(=O)NC3=O)C(F)(F)C2)c1 (stereo partly drawn),,,< 0.05,< 0.05

# Further lines, with some results ahead:
"DC50 [1, 3] [µM]","DC50 [2, 4] [µM]",SMILES,DC50 ([1]; read-out: HiBiT Degradation B16F10.4 PTPN2 24.0 hours DC50) [µM],DC50 ([2]; read-out: HiBiT Degradation 293T.109 PTPN2 24.0 hours DC50) [µM]
0.05 to 0.2,0.05 to 0.2,Cn1c(=O)n(C2CCC(=O)NC2=O)c2ccc(N3CCC(CCN4CCN(c5cccc(CS(=O)(=O)N6CC[C@H](Nc7cccc(-c8sc(C(=O)O)c(OCC(=O)O)c8Cl)c7)CC6(C)C)c5)C4=O)CC3)cc21 (stereo partly drawn),,
0.05 to 0.2,0.05 to 0.2,Cn1nc(C2CCC(=O)NC2=O)c2ccc(C3CCN(C(=O)Nc4cccc(CS(=O)(=O)N5CC[C@H](Nc6cccc(-c7sc(C(=O)O)c(OCC(=O)O)c7Cl)c6)CC5(C)C)c4)CC3(F)F)cc21 (stereo partly drawn),,
0.05 to 0.2,< 0.05,CC1(C)C[C@@H](Nc2cccc(-c3sc(C(=O)O)c(OCC(=O)O)c3Cl)c2)CCN1S(=O)(=O)Cc1cccc(NCCNC2CCN(c3ccc4c5c(cccc35)C(=O)N4C3CCC(=O)NC3=O)CC2)c1 (stereo partly drawn),,

# Where two headings read alike, the source gives them in different places.
